Patent publication US7998736B2, “Adoptive immunotherapy with enhanced T lymphocyte survival” (The United States of America as represented by the …, priority 2004, dated 2011)

System: CTLL-2 cells
Test: CTLL-2 proliferation assay (3H-thymidine)
Type: cell-based, mouse
Details: Sup-T1 supernatants or control cytokine, 24 h
Protocol: CTLL-2 is a C57BL/6 mouse cytotoxic T lymphocyte clone used to assay for “T lymphocyte growth factor.” The cells can be stimulated to proliferate by IL-2 or IL-15. The CTLL-2 assay was used to determine whether IL-15 produced by transduced Sup-T1 cells was biologically active.
CTLL-2 cells were grown in culture for 4 days and then harvested and washed twice in PBS and then plated into a 96-well plate, 5×10^3 cells/well. The CTLL-2 cells were incubated in the absence of cytokines for 4 hours. Supernatants from the transduced Sup-T1 cells were then added to the culture in serial dilutions. Positive controls (IL-2 and IL-15) were also added to other wells. The CTLL-2 cells were cultured for a total of 24 hours; during the final six hours ^3H-Thymidine was added to each well. The CTLL-2 cells were harvested to a filter and read on a β-counter.

IL-2: exogenous IL-2 cytokine added to culture media
proliferation of CTLL-2: did proliferate
